# Measured melting point values of organic chemicals

Data: OPERA 2.9 data sets, kmansouri/OPERA on GitHub.

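The OPERA project collected these measurements from public sources as training and test data for property models. The files give a single number for a compound and property, which may rest on several reports. How each value was measured is not recorded, so precision varies. The measured form (salt, isomer or mixture) is not always the one drawn. Some upstream entries may be estimates or bounds without being marked so.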

Melting points are in °C.
Cells with "–" have no entry in this list.
The databases behind each value are named after "via".

| mp (°C) | SMILES | name | via |
|---|---|---|---|
| 161 | S=c1[nH]nc(Nc2ccccc2)s1 | 1,3,4-Thiadiazole-2(3H)-thione, 5-anilino- | OCHEM |
| 156 | O=C(CCl)NNC(=O)c1cccc(Cl)c1 | 3-Chloro-N'-(chloroacetyl)benzohydrazide | OCHEM |
| 68.5 | O=C(C(Cl)c1ccccc1)N1CCCCC1 (stereo not given) | 1-[chloro(phenyl)acetyl]piperidine | OCHEM |
| 154 | Cc1ccc(C)c(OCC(=O)NN)c1 | 2-(2,5-dimethylphenoxy)acetohydrazide | OCHEM |
| 115 | O=C(O)c1ccccc1SC(F)F | 2-(Difluoromethylthio)benzoic acid | OCHEM |
| 196 | Nc1cc(-c2ccc([N+](=O)[O-])cc2)no1 | 3-(4-Nitrophenyl)-1,2-oxazol-5-amine | OCHEM |
| 63 | O=S1(=O)C=CCC1 | Thiophene, 2,3-dihydro-, 1,1-dioxide | OCHEM |
| 163 | COc1ccccc1NC(=O)c1ccc(N)cc1 | 4-amino-N-(2-methoxyphenyl)benzamide | OCHEM |
| 80.5 | COc1cccc(OC)c1OCC(=O)O | (2,6-Dimethoxy-phenoxy)-acetic acid | OCHEM |
| 122.5 | O=C(Nc1ccc2ccccc2c1)C(F)(F)C(F)(F)C(F)(F)F | (2-Naphthalenyl)perfluorobutanamide | ChemicalBook |
| 104 | O=C1C=CC(=O)N1c1cccc2ccccc12 | 1-(Naphthalen-1-yl)-1H-pyrrole-2,5-dione | OCHEM |
| 223 | S=c1nc(-c2ccccc2)c(-c2ccccc2)n[nH]1 | 5,6-Diphenyl-1,2,4-triazine-3-thiol | OCHEM |
| 146.5 | O=Cc1cc(F)c(O)cc1F | 2,5-Difluoro-4-hydroxybenzaldehyde | OCHEM |
| 94.5 | COc1c(Br)cc(Br)cc1C=O | 3,5-Dibromo-2-methoxybenzaldehyde | OCHEM |
| 83 | Clc1nnc(-c2ccccc2)s1 | 2-Chloro-5-phenyl-1,3,4-thiadiazole | OCHEM |
| 152 | Cc1ccc(N)cc1S(N)(=O)=O | 5-Amino-2-methylbenzenesulfonamide | OCHEM |
| 109 | CCSC(N)=O | S-Ethyl carbamothioate | OCHEM |
| 160 | CC(=O)c1ccc(OC(C)C(=O)O)cc1 (stereo not given) | 2-(4-acetylphenoxy)propanoic Acid | OCHEM |
| 66 | Nc1ccc2c(c1)OC1(CCCCC1)O2 | – | OCHEM |
| 30 | C=CC(=O)OCCCCCCCCCCCCCCCCCCCCCC | Docosyl acrylate | eChemPortal |
| 179 | O=c1cc(CCl)c2cc(O)c(O)cc2o1 | 4-(Chloromethyl)-6,7-dihydroxy-2-benzopyrone | OCHEM |
| 63 | Nc1cc(Cl)ccc1Sc1ccccc1 | 5-Chloro-2-phenylsulfanyl-phenylamine | OCHEM |
| 104 | CCOCc1c(C(=O)O)oc2ccccc12 | 3-(ethoxymethyl)-1-benzofuran-2-carboxylic acid | OCHEM |
| 120 | CCSC(=O)NCCC[NH+](C)C.[Cl-] | Prothiocarb hydrochloride [ISO] | OCHEM |
| 90 | CCOc1ccc(C(=O)CC(=O)C(=O)OC)cc1 | methyl 4-(4-ethoxyphenyl)-2,4-dioxobutanoate | OCHEM |
| 189 | Cc1cc(Cl)c(Cl)cc1C1=NN(c2ccc(S(=O)(=O)CCO)cc2)CC1 | – | eChemPortal |
| 148 | CC1C(=O)NC(=O)N1c1ccccc1 (stereo not given) | 5-methyl-1-phenylimidazolidine-2,4-dione | OCHEM |
| 252 | Cn1c(N)c(NC=O)c(=O)n(C)c1=O | – | eChemPortal |
| 125 | Nc1sc2c(c1C(=O)c1ccccc1)CCCC2 | – | OCHEM |
| 168 | Fc1ccccc1-n1cn[nH]c1=S | 4-(2-fluorophenyl)-4H-1,2,4-triazole-3-thiol | OCHEM |
| 88.5 | N#CCC(=O)NC1CC1 | 2-cyano-N-cyclopropylacetamide | OCHEM |
| 79 | Nc1cc(Cl)ccc1NCc1ccccc1 | N~1~-Benzyl-4-chlorobenzene-1,2-diamine | OCHEM |
| 75 | O=[N+]([O-])c1cc(Cl)ccc1S(=O)(=O)Cl | 4-Chloro-2-nitrophenylsulphonyl chloride | OCHEM |
| 148 | Clc1nc(-c2ccccc2)nc2scc(-c3ccccc3)c12 | 4-chloro-2,5-diphenylthieno[2,3-d]pyrimidine | OCHEM |
| 181 | Nc1nc(-c2ccc3c(c2)OCCO3)cs1 | 4-(2,3-Dihydro-1,4-benzodioxin-6-yl)-1,3-thiazol-2-amine | OCHEM |
| 207 | Cc1nccc(C(=O)O)n1 | 2-Methylpyrimidine-4-carboxylic acid | OCHEM |
| 179 | CC1CCc2c(C(=O)O)csc2C1 (stereo not given) | – | OCHEM |
| 52 | Nc1cccnc1OCc1ccccc1 | 2-(Benzyloxy)pyridin-3-amine | OCHEM |
| 304 | Nc1c(C(=O)O)cnc2ccccc12 | 4-aminoquinoline-3-carboxylic Acid | OCHEM |
| 205 | O=C(O)C(=Cc1cccs1)n1nnnc1-c1ccccc1 | 2-(5-phenyltetrazol-1-yl)-3-thiophen-2-ylprop-2-enoic acid | OCHEM |
| 66 | COc1ccccc1CNCCO | 2-[(2-methoxybenzyl)amino]ethanol | OCHEM |
| 113 | NC(=S)C1CC1 | Cyclopropanecarbothioamide | OCHEM |
| 227 | CNS(=O)(=O)c1cc(C(=O)O)ccc1Cl | 4-chloro-3-[(methylamino)sulfonyl]benzoic acid | OCHEM |
| 127 | COc1cc(N)ccc1N1CCCC1=O | 1-(4-Amino-2-methoxyphenyl)pyrrolidin-2-one | OCHEM |
| 155 | C=CCN1C(=O)c2ccc(C(=O)O)cc2C1=O | 2-allyl-1,3-dioxoisoindoline-5-carboxylic acid | OCHEM |
| 180 | O=C(O)c1[nH]c2ccccc2c1Cl | 3-Chloro-1H-indole-2-carboxylic acid | OCHEM |
| 211.3 | CC(=O)OCC(=O)[C@@]1(O)[C@H](C)C[C@H]2[C@@H]3C[C@H](F)C4=CC(=O)C=C[C@]4(C)[C@@]34O[C@H]4C[C@@]21C | – | eChemPortal |
| 131 | CNC(=O)NC(=O)C(Cl)c1ccccc1 (stereo not given) | 2-chloro-N-[(methylamino)carbonyl]-2-phenylacetamide | OCHEM |
| 198 | Cc1c(C)c(-c2ccc(N)cc2)c(C)c(C)c1N | 2,3,5,6-Tetramethyl[1,1'-biphenyl]-4,4'-diamine | OCHEM |
| 181.4 | NC[C@H](O)c1ccc(O)c(O)c1 | Norepinephrine | PubChem |
| 209.5 | CCOC(=O)[C@@H](N)CSC(O)=NC | Ethyl S-[hydroxy(methylimino)methyl]cysteinate | OCHEM |
| 182 | O=C(O)c1c(Cl)nc2sccn12 | 6-Chloro-imidazo[2,1-b]thiazole-5-carboxylic acid | OCHEM |

Excerpt, the opening 3 entries:

| SMILES | name | mp (°C) | via |
|---|---|---|---|
| S=c1[nH]nc(Nc2ccccc2)s1 | 1,3,4-Thiadiazole-2(3H)-thione, 5-anilino- | 161 | OCHEM |
| O=C(CCl)NNC(=O)c1cccc(Cl)c1 | 3-Chloro-N'-(chloroacetyl)benzohydrazide | 156 | OCHEM |
| O=C(C(Cl)c1ccccc1)N1CCCCC1 (stereo not given) | 1-[chloro(phenyl)acetyl]piperidine | 68.5 | OCHEM |